# Laboratory results taken from article PMC10745346, “A Robust and Efficient FRET-Based Assay for Cannabinoid Receptor Ligands Discovery” (Molecules, 2023).
# Protein sequences, listed by entry. Tags and fused reporters are not part of them.
# UniProt P34972, whole entry: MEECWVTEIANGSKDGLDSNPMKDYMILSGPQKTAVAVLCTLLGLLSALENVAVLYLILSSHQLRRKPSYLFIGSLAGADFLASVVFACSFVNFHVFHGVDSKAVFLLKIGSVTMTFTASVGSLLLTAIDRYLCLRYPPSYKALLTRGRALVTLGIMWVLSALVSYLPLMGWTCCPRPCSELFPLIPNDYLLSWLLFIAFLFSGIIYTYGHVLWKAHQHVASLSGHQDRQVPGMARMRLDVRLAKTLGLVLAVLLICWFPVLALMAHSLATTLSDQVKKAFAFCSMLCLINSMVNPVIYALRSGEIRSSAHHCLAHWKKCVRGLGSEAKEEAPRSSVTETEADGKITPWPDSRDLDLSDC
# Molecular target: T1, SNAP-CB2R (Homo sapiens, UniProt P34972)
# T1 construct: host or cells: HEK-293 cells, transient transfection (lipofectamine 2000), living adherent cells
# Assay: Tag-lite competition binding assay with CELT-335, living cells expressing SNAP-CB2R
smiles,measurement,value
"C=C(C)[C@@H]1CCC(C)=C[C@H]1c1c(O)cc(CCCCC)cc1O [CBD, Cannabidiol]",Ki,1.05 µM
